Data as given in ChEMBL document CHEMBL4049449, “Discovery of a Novel Class of Survival Motor Neuron 2 Splicing Modifiers for the Treatment of Spinal Muscular Atrophy” (J Med Chem, 2017).

Organism: Homo sapiens
Assay: Modulation of patient derived full length SMN2 pre mRNA splicing assessed as restoration of functional SMN2 to protein level

- EC1.5: 120 nM
SMILES: Cc1cn2cc(-c3cc4ccc(N5CCN(C)CC5)cc4c(=O)o3)nc2c(C)n1
